# Laboratory results reported in patent US20130216666A1, “CASHEW NUT SHELL LIQUID WITH IMPROVED STABILITY” (IDEMITSU KOSAN CO., LTD., priority 2010, published 2013).
# Read-outs that look alike come from different tables or passages of the source.
# Conditions: 10% by weight in unheated CNSL, 80° C.
structure (smiles),measurement,setting,value
"O=P(O)(O)O [Phosphoric Acid, phosphoric acid]",Cardanol 15:1 Composition (%),Day 0,1.54%
same,Cardanol 15:1 Composition (%),Day 3,1.53%
